Source: paper PMC12503259, “Establishment of an in vivo analytical method for detecting total anti-UFH activity and pharmacokinetic study in PS and R15 in rats” (PLOS One, 2025)

Assay: Pharmacokinetic study in Wistar rats, total anti-heparin activity in plasma (fixed UFH added, residual UFH by anti-FXa kit)
Format: in vivo
Description: Processing of Plasma Samples: 100 μL of the unknown plasma sample was added to 500 μL of 75% methanol (methanol: water = 75:25, v/v) and vortex-mixed for 5 seconds. The mixture was then centrifuged at 12,000 r/min for 10 minutes at 25°C. The supernatant (500 μL) was collected and dried under nitrogen at 60°C. Subsequently, UFH (0.14 U·mL^-1 for PS and 0.15 U·mL^-1 for R15; 120 μL) was added, and the mixture was vigorously shaken at room temperature for 10 minutes. The residual UFH content was measured using the Heparin Anti-FXa assay kit.
The detailed procedure is as follows: Accurately pipette 40 μL of the sample into a 96-well plate. Place the plate in a microplate shaker. Using a multichannel pipette, add 40 μL of reagent R1 and mix by shaking. Incubate at 37 °C for exactly 3 minutes (start timing upon addition of R1; at 50 seconds, begin shaking with the microplate shaker for 1 minute, then place the plate in the incubator). Remove the 96-well plate from the incubator and place it on the open microplate shaker. Using a multichannel pipette, add 40 μL of reagent R2 to each well and incubate at 37 °C for 6 minutes (after adding R2, at 3 minutes and 50 seconds, open the microplate shaker and shake for 4 minutes, then return the plate to the incubator). Remove the 96-well plate from the incubator and place it on the open microplate shaker. Quickly add 40 μL of reagent R3 using a multichannel pipette and shake until 9 minutes and 10 seconds. At 9 minutes and 30 seconds, add 80 μL of 20% acetic acid to each well to terminate the reaction. Measure the absorbance at 405 nm using a microplate reader (Multiskan FC, Thermo Fisher US).
Eight Wistar rats (approximately 250 g; equally divided by sex and acclimatized for 1 week in the animal facility) were used for profiling pharmacokinetics of PS. Each rat was cannulated in carotid artery to collect blood the day before the experiment. PS was injected through the tail vein and blood samples were collected at 0 min, 1 min, 3 min, 5 min, 7 min, 9 min, 11 min, 15 min, 20 min, 30 min, 60 min and 120 min in a tube containing 4% sodium citrate. Plasma was achieved by centrifugation at 8000 r/min for 10 min, and stored in the refrigerator at −80°C. […]
During the analysis of actual samples, a standard curve and a series of calibration standards were established for each analytical batch to determine the concentration of PS and R15 in plasma. The concentrations were plotted on the X-axis, and the data were fitted using Equation (3).
Weighted least squares regression was used for the calculations. The Optical Density (OD) values of the unknown biological samples were substituted into the equation to determine the concentration of PS and R15, respectively.
Pharmacokinetic parameters of PS were calculated by WinNonlin 6.4, and all data were processed by Microsoft Excel 2013 and GraphPad Prism 8.3.

[1] = R15 2700 U/kg iv, rat 27# (female), single animal
[2] = R15 2700 U/kg iv, rat 28# (female), single animal
[3] = R15 2700 U·kg^-1 single iv tail vein, Wistar rats, Total (male and female), mean ± SD, n = 8
[4] = R15 2700 U·kg^-1 single iv tail vein, Wistar rats, female, mean ± SD, n = 4
[5] = R15 2700 U·kg^-1 single iv tail vein, Wistar rats, male, mean ± SD, n = 4
[6] = both 300 U·kg^-1 iv, Wistar rats, pooled

T1/2 [1]: 2.3928 h
Vd [1]: 2543 mL･kg^-1
AUC [2]: 1543 min･µg･mL^-1
CL [2]: 8.97 mL･min^-1･kg^-1
Cmax [2]: 10.11 µg･mL^-1
MRT [2]: 3.6828 h
T1/2 [2]: 3.8835 h
Vd [2]: 3015 mL･kg^-1
Cmax (R15 2700 U·kg^-1 single iv tail vein, Wistar rats, Total (male and female), at 1 min, mean ± SD, n = 8): 11.65 ± 2.95 µg/mL
AUC [3]: 1320 ± 387 µg·min/mL
CL [3]: 11.16 ± 2.60 mL/min/kg
MRT [3]: 3.2312 ± 0.8518 h
T1/2 [3]: 2.7187 ± 0.908 h
Vd [3]: 2618 ± 987 mL/kg
AUC [4]: 1399 ± 249 µg·min/mL
CL [4]: 10.35 ± 1.63 mL/min/kg
Cmax [4]: 10.37 ± 3.68 µg/mL
MRT [4]: 3.4318 ± 0.6907 h
T1/2 [4]: 2.9057 ± 0.799 h
Vd [4]: 2579 ± 655 mL/kg
AUC [5]: 1241 ± 521 µg·min/mL
CL [5]: 11.97 ± 3.37 mL/min/kg
Cmax [5]: 12.94 ± 1.55 µg/mL
MRT [5]: 3.0305 ± 1.053 h
T1/2 [5]: 2.5315 ± 1.092 h
Vd [5]: 2658 ± 1356 mL/kg
Concentration (plasma concentration of R15), Mean±SD (Wistar rats, intravenous infusion 2700 U/kg, time 0 min, mean of individual rats): 0 ng/mL
level at 8 h (Wistar, plasma, R15 900 U/kg iv, 480 min, Mean±SD column (one rat), read-out: plasma concentration): 430 ng/mL
AUC of R15 relative to PS [6]: 18 fold
MRT of R15 relative to PS [6]: 19 fold
T1/2 of R15 relative to PS [6]: approximately 13 fold
CL of R15 relative to PS (both 300 U·kg^-1 iv, Wistar rats, pooled, fraction of PS value): about 1/20
level at 1 min (both sexes, Wistar, rat, plasma, R15 300 U/kg iv, 1 min, Mean±SD, read-out: plasma concentration): 10900 ± 2430 ng/mL
level at 5 min (both sexes, Wistar, rat, plasma, R15 300 U/kg iv, 5 min, Mean±SD, read-out: plasma concentration): 6990 ± 1290 ng/mL
level at 0.25 h (both sexes, Wistar, rat, plasma, R15 300 U/kg iv, 15 min, Mean±SD, read-out: plasma concentration): 7340 ± 1180 ng/mL
level at 0.5 h (both sexes, Wistar, rat, plasma, R15 300 U/kg iv, 30 min, Mean±SD, read-out: plasma concentration): 5880 ± 730 ng/mL
level at 1 h (both sexes, Wistar, rat, plasma, R15 300 U/kg iv, 60 min, Mean±SD, read-out: plasma concentration): 4310 ± 1060 ng/mL
level at 2 h (both sexes, Wistar, rat, plasma, R15 300 U/kg iv, 120 min, Mean±SD, read-out: plasma concentration): 1540 ± 570 ng/mL
level at 4 h (both sexes, Wistar, rat, plasma, R15 300 U/kg iv, 240 min, Mean±SD, read-out: plasma concentration): 610 ± 150 ng/mL
level at 1 min (both sexes, Wistar, rat, plasma, R15 900 U/kg iv, 1 min, Mean±SD, read-out: plasma concentration): 11500 ± 1140 ng/mL
level at 5 min (both sexes, Wistar, rat, plasma, R15 900 U/kg iv, 5 min, Mean±SD, read-out: plasma concentration): 8150 ± 810 ng/mL
level at 0.25 h (both sexes, Wistar, rat, plasma, R15 900 U/kg iv, 15 min, Mean±SD, read-out: plasma concentration): 7230 ± 340 ng/mL
level at 0.5 h (both sexes, Wistar, rat, plasma, R15 900 U/kg iv, 30 min, Mean±SD, read-out: plasma concentration): 5690 ± 650 ng/mL
level at 1 h (both sexes, Wistar, rat, plasma, R15 900 U/kg iv, 60 min, Mean±SD, read-out: plasma concentration): 5110 ± 590 ng/mL
level at 2 h (both sexes, Wistar, rat, plasma, R15 900 U/kg iv, 120 min, Mean±SD, read-out: plasma concentration): 3930 ± 540 ng/mL
level at 4 h (both sexes, Wistar, rat, plasma, R15 900 U/kg iv, 240 min, Mean±SD, read-out: plasma concentration): 1260 ± 420 ng/mL
level at 6 h (both sexes, Wistar, rat, plasma, R15 900 U/kg iv, 360 min, Mean±SD, read-out: plasma concentration): 890 ± 210 ng/mL
level at 1 min (both sexes, rat, plasma, Wistar rats, intravenous infusion 2700 U/kg, time 1 min, mean of individual rats, read-out: Concentration (plasma concentration of R15), Mean±SD): 11600 ± 2950 ng/mL
level at 5 min (both sexes, rat, plasma, Wistar rats, intravenous infusion 2700 U/kg, time 5 min, mean of individual rats, read-out: Concentration (plasma concentration of R15), Mean±SD): 5230 ± 1640 ng/mL
level at 0.25 h (both sexes, rat, plasma, Wistar rats, intravenous infusion 2700 U/kg, time 15 min, mean of individual rats, read-out: Concentration (plasma concentration of R15), Mean±SD): 4700 ± 1430 ng/mL
level at 0.5 h (both sexes, rat, plasma, Wistar rats, intravenous infusion 2700 U/kg, time 30 min, mean of individual rats, read-out: Concentration (plasma concentration of R15), Mean±SD): 3670 ± 920 ng/mL
level at 1 h (both sexes, rat, plasma, Wistar rats, intravenous infusion 2700 U/kg, time 60 min, mean of individual rats, read-out: Concentration (plasma concentration of R15), Mean±SD): 3970 ± 910 ng/mL
level at 2 h (both sexes, rat, plasma, Wistar rats, intravenous infusion 2700 U/kg, time 120 min, mean of individual rats, read-out: Concentration (plasma concentration of R15), Mean±SD): 3480 ± 580 ng/mL
level at 4 h (both sexes, rat, plasma, Wistar rats, intravenous infusion 2700 U/kg, time 240 min, mean of individual rats, read-out: Concentration (plasma concentration of R15), Mean±SD): 2340 ± 760 ng/mL
level at 6 h (both sexes, rat, plasma, Wistar rats, intravenous infusion 2700 U/kg, time 360 min, mean of individual rats with determined values, read-out: Concentration (plasma concentration of R15), Mean±SD): 1750 ± 440 ng/mL
level at 8 h (both sexes, rat, plasma, Wistar rats, intravenous infusion 2700 U/kg, time 480 min, mean of individual rats with determined values, read-out: Concentration (plasma concentration of R15), Mean±SD): 1220 ± 520 ng/mL
level at 10 h (both sexes, rat, plasma, Wistar rats, intravenous infusion 2700 U/kg, time 600 min, mean of individual rats with determined values, read-out: Concentration (plasma concentration of R15), Mean±SD): 770 ± 140 ng/mL
level at 12 h (both sexes, rat, plasma, Wistar rats, intravenous infusion 2700 U/kg, time 720 min, mean of individual rats with determined values, read-out: Concentration (plasma concentration of R15), Mean±SD): 460 ± 10 ng/mL
SMILES: N=C(N)NCCC[C@H](NC(=O)[C@H](CCCNC(=N)N)NC(=O)[C@H](CCCNC(=N)N)NC(=O)[C@H](CCCNC(=N)N)NC(=O)[C@H](CCCNC(=N)N)NC(=O)[C@H](CCCNC(=N)N)NC(=O)[C@H](CCCNC(=N)N)NC(=O)[C@H](CCCNC(=N)N)NC(=O)[C@H](CCCNC(=N)N)NC(=O)[C@H](CCCNC(=N)N)NC(=O)[C@H](CCCNC(=N)N)NC(=O)[C@H](CCCNC(=N)N)NC(=O)[C@H](CCCNC(=N)N)NC(=O)[C@H](CCCNC(=N)N)NC(=O)[C@@H](N)CCCNC(=N)N)C(=O)O [R15]

Where two headings read alike, the source gives them in different places.
